# Apparent affinities of Ab-14 variants for a coronavirus HR2 peptide

Binding partner: SARS-CoV-2 spike HR2 peptide, sequence PDVDLGDISGINAS.

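These sequences belong to a second round, designed from the earlier measurements on random variants of the parent. Several design methods are mixed in this list. The assay is AlphaSeq: two haploid yeast populations carry antibody and antigen on their surface. Pairs that bind mate more often; barcode pairs of the diploids are counted by sequencing. A regression on co-assayed BCL2-family reference pairs converts the normalised counts of each replicate to an apparent Kd. Each pool was mated in six replicate cultures.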

Parent scFv Ab-14: VH joined to VL by a (GGGGS)3 linker. Changes lie in the light chain CDRs alone.
VH: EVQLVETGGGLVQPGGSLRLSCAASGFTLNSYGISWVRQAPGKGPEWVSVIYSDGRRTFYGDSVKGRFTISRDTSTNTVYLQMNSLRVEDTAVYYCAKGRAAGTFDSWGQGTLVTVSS
VL: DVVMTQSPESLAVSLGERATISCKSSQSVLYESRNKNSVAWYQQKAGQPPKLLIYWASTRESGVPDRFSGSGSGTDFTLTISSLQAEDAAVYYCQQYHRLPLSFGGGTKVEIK

Positions count from residue 1 of the parent VL; S25L puts L in place of S. Variants here have at most six changes. Affinities are written as log10 Kd with Kd in nM; a lower number is a better binder. Replicates are averaged; those with no signal do not enter the mean. "nd" means that the variant was in the library but no mating with the target was seen in any replicate; the authors take this as a sign of poor binding, and no number exists. Empty control strains, which show no peptide, gave a signal in 4% of pairings with all light chain designs; the median was 2.64 and 95% of these signals were weaker than 1.59. No background was subtracted. Values of this round are not directly comparable with the first-round values of the same sequences. The authors averaged sequences with at least three values out of six and counted those with two or fewer as poor binders.

- S25L+S26E+S28W+L30E+W56H+E61L: 0.40 (6 of 6 replicates)
- S33E+Q96T: 2.26 (3 of 6 replicates)
- S25L+S26E+V29M+L30E+W56N+T59Q: 0.47 (6 of 6 replicates)
- S25L+S28G+Y31M+W56E+T59Q+S62E: -0.66 (6 of 6 replicates)
- S25L+L30D+S38N+W56G: -0.15 (6 of 6 replicates)
- S25L+S26Q+V29W+L30P+W56N+E61M: 0.85 (6 of 6 replicates)
- S25I+V29S+W56Q+S58V: 0.10 (6 of 6 replicates)
- W56A+H98F: 0.07 (6 of 6 replicates)
- S26T+W56N+Q95V: nd (0 of 6 replicates)
- S25V+S26Y+V29W+W56N: 0.38 (6 of 6 replicates)
- V29G+K36S: nd (0 of 6 replicates)
- S25V+Y31E+N35Q+S62A: 0.54 (6 of 6 replicates)
- S25M+Y31M+S33W+W56D+T59L: 0.19 (6 of 6 replicates)
- S25M+L30W+W56D: -0.11 (6 of 6 replicates)
- S33L+W56G+T59A: 0.98 (6 of 6 replicates)
- K24I+S25V+V29M+Y31G+W56H+S62N: 0.10 (6 of 6 replicates)
- S25F+S26Q+V29W+W56N+E61M: -0.08 (6 of 6 replicates)
- S25L+S26Q+L30E+S38N+W56E: -0.59 (6 of 6 replicates)
- K24Q+W56Q: 0.93 (5 of 6 replicates)
- S33C+S62N: 0.13 (6 of 6 replicates)
- S25L+S26Q+V29E+K36C+W56N+T59Q: 0.07 (6 of 6 replicates)
- S25L+Q27W+V29E+W56N: -0.27 (6 of 6 replicates)
- S26P+L30D+W56N+S62D+Q96S: -0.01 (6 of 6 replicates)
- S25L+S26A+V29T+W56L: 1.56 (6 of 6 replicates)
- S25L+S26Q+V29D+W56E+T59Q: -0.08 (6 of 6 replicates)
- S25L+S26Y+L30P+W56N: -0.18 (6 of 6 replicates)
- S25V+W56N+S103W: 0.01 (6 of 6 replicates)
- S25L+V29S+W56N+E61L: 0.10 (6 of 6 replicates)
- S25L+S26W+V29W+W56N+T59Q: 0.02 (6 of 6 replicates)
- K24H+S25L+W56N+S62D: 0.17 (6 of 6 replicates)
- K24H+S25L+Q27F+S28V+W56N: 2.21 (5 of 6 replicates)
- V29D+E61S+R99Q: 2.38 (3 of 6 replicates)
- L30R+R34Q+W56E+A57G+H98R: 0.67 (6 of 6 replicates)
- S25L+S26Q+V29M+W56N+E61L: -0.22 (6 of 6 replicates)
- S25L+S26M+V29S+E32D+W56N+S62W: -0.01 (6 of 6 replicates)
- S25L+N35V+W56E+T59Q: -0.56 (6 of 6 replicates)
- S25L+V29Y+S38N+W56H: 0.27 (6 of 6 replicates)
- S26L: 2.46 (1 of 6 replicates)
- S25L+S33E+N35M+W56N+T59Q+E61L: 0.22 (6 of 6 replicates)
- V29W+K36F+W56N+T59Q: 0.50 (6 of 6 replicates)

Again, the first 2 entries without any signal:

- S26T+W56N+Q95V = nd (0 of 6 replicates)
- V29G+K36S = nd (0 of 6 replicates)

From the AlphaSeq antibody data of Li et al. 2023 (doi:10.1038/s41467-023-39022-2), copy in the FLAb collection.